Apparent affinities of Ab-14 variants for a coronavirus HR2 peptide

Target: peptide PDVDLGDISGINAS, taken from heptad repeat 2 (HR2) of SARS-CoV-2 spike.

Parent: Ab-14, a human scFv built as VH, the linker GGGGSGGGGSGGGGS, VL. Only the CDRs of the light chain vary.
VH: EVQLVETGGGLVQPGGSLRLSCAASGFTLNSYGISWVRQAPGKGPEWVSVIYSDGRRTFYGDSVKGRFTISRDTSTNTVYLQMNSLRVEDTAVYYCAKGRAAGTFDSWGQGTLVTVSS
VL: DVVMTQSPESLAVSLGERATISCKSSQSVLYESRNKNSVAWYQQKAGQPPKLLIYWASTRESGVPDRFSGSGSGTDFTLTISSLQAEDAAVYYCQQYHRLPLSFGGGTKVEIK

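AAYL50 was designed without a model: most single CDR substitutions and a random sample of double and triple ones. AlphaSeq pools MATa yeast showing the antibodies with MATalpha yeast showing the peptide. Mating (16 h, 30 °C) was followed by selection of diploids and sequencing of their barcodes. Each replicate has its own calibration line, from reference interactions of the BCL2 family. The assay was run in three technical replicates.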

Changes read parent residue, position, new residue, counted from the first residue of the VL shown.
Numbers give log10(Kd / nM), so 0 is 1 nM and 3 is 1 µM. Smaller is tighter.
Averages over replicates are reported, and they cover detected replicates only.
"nd" means that the variant was in the library but no mating with the target was seen in any replicate; the authors take this as a sign of poor binding, and no number exists.
In this assay the parent's reference entry averaged 0.65; its copy inside this library read 1.68.
Background: pairings of library AAYL50 with three empty control strains gave a value in 18% of cases (median 4.19, 5th percentile 2.99). Values in that range, when seen in few replicates, are hard to tell from nonspecific mating. Also given: how often the same scFv was detected with the empty control strains.

nd (0 of 3 replicates; controls 0 of 9): S26C S28R S58H.
1.63 (3 of 3 replicates; controls 0 of 9): V29P Y31K.
2.78 (3 of 3 replicates; controls 1 of 9): E32M R34M Q96K.
1.30 (3 of 3 replicates; controls 0 of 9): R34E N37L S103F.
1.60 (3 of 3 replicates; controls 5 of 9): R34W K36A N37R.
5.49 (1 of 3 replicates; controls 3 of 9): S33E E61T S62D.
nd (0 of 3 replicates; controls 0 of 9): E61Q H98T.
4.43 (1 of 3 replicates; controls 0 of 9): N35V S38I P101D.
1.58 (3 of 3 replicates; controls 1 of 9): S26W R34F H98R.
nd (0 of 3 replicates; controls 1 of 9): E32V K36L Q96V.
2.17 (3 of 3 replicates; controls 0 of 9): V29M T59Y L100F.
1.39 (3 of 3 replicates; controls 1 of 9): S25Q Y31W N37K.
4.91 (2 of 3 replicates; controls 4 of 9): L30I T59M R60M.
1.54 (3 of 3 replicates; controls 3 of 9): K36F L100C.
3.43 (3 of 3 replicates; controls 1 of 9): S26H N35Y S103P.
nd (0 of 3 replicates; controls 0 of 9): Y31I K36F S58H.
4.78 (1 of 3 replicates; controls 0 of 9): R34H S58P.
2.24 (3 of 3 replicates; controls 2 of 9): R34A R60C.
0.76 (3 of 3 replicates; controls 3 of 9): V29D S33A N35S.
5.17 (1 of 3 replicates; controls 1 of 9): L30G A57T Y97V.
2.46 (3 of 3 replicates; controls 3 of 9): T59A Y97D H98A.
2.73 (1 of 3 replicates; controls 2 of 9): R60S R99N.
2.18 (3 of 3 replicates; controls 0 of 9): R34E S103H.
1.17 (3 of 3 replicates; controls 0 of 9): S25P K36L E61L.
1.67 (3 of 3 replicates; controls 0 of 9): V29R N37Q S58T.
3.61 (1 of 3 replicates; controls 4 of 9): K24C V29P H98P.
2.97 (2 of 3 replicates; controls 1 of 9): S26K L30M P101C.
1.23 (3 of 3 replicates; controls 1 of 9): Q95M P101Q.
nd (0 of 3 replicates; controls 4 of 9): W56L R60G Q96S.
5.52 (1 of 3 replicates; controls 6 of 9): W56M T59K L100E.
nd (0 of 3 replicates; controls 3 of 9): V29C L102N S103C.
3.91 (1 of 3 replicates; controls 1 of 9): E32V L102S.
nd (0 of 3 replicates; controls 1 of 9): S26Y V39F Y97M.
nd (0 of 3 replicates; controls 0 of 9): S38H A40I S103K.
nd (0 of 3 replicates; controls 0 of 9): L30K R34H L102E.
2.34 (3 of 3 replicates; controls 3 of 9): S26M V29G E61R.
5.75 (1 of 3 replicates; controls 3 of 9): V29D E32I.
1.55 (3 of 3 replicates; controls 0 of 9): N35P N37Y.
2.04 (3 of 3 replicates; controls 2 of 9): E32L R99L P101R.
5.01 (2 of 3 replicates; controls 4 of 9): V39D Q96A Y97H.
4.35 (1 of 3 replicates; controls 4 of 9): N35E V39H P101K.

The first 7 variants above that were never detected:

changes,"mean, log10 nM",seen in,signal with controls
S26C S28R S58H,nd,0 of 3,0 of 9
E61Q H98T,nd,0 of 3,0 of 9
E32V K36L Q96V,nd,0 of 3,1 of 9
Y31I K36F S58H,nd,0 of 3,0 of 9
W56L R60G Q96S,nd,0 of 3,4 of 9
V29C L102N S103C,nd,0 of 3,3 of 9
S26Y V39F Y97M,nd,0 of 3,1 of 9

The measurements come from Engelhart et al. 2022 (doi:10.1038/s41597-022-01779-4) through the FLAb antibody collection.